# Test results as given in article PMC6979384, “Characterization of the plant homeodomain (PHD) reader family for their histone tail interactions” (Epigenetics & Chromatin, 2020).
# Columns and labels:
# Experiment in all cases: Histone peptide microarray
# Format in all cases: binding, human
# [1] = test system: KDM5B (1); conditions: sheet "Array Heatmap"; GST-tagged KDM5B (1); arrays performed twice, total replicate number n = 4
# From the text: (§1) To more comprehensively define the histone interactions of the 31 PHD readers identified from the domain microarray analyses, we probed each on an alternate microarray platform containing a library of 293 synthetic histone peptides with single or combinatorial PTMs (Additional file 2: Figure S4 and Additional file 3: Table S2).
# (§2) The 31 GST-tagged PHD readers identified in the PHD finger domain array were expressed and purified as previously. Histone peptide arrays and peptide pulldown assays were conducted as recently described (specifically, the optimized protocol from Petell et al. for the former).
# Supplementary file 13072_2020_328_MOESM3_ESM.xlsx: Additional file 3: Table S2. […] Excel Tab Peptide List is a compiled list of the entire 293 histone peptide library with amino acid sequence ranges. […] Each number corresponds to the peptide number designated in Peptide List. Excel Tab Average Signals is a compiled set of binding data: chromatin reader at 0.5 μM vs. entire 293 peptide library. Data is presented as the average and standard deviation of 4 replicates. The average signals are colored to indicate signal intensity with green being strong and white being weak/low. […] Key: red= stronger relative binding; blue = weaker relative binding. Excel Tab Array info summary is a table summarizing the domains, sequence coverage, array signal range, and noise for each of the GST-tagged readers assayed on the peptide microarrays.
# [2] = test system: AIRE (PP); conditions: sheet "Array Heatmap"; GST-tagged AIRE (PP); arrays performed twice, total replicate number n = 4
# From the text: as §1, with “S2). […] In general, the 31 PHD fingers were confirmed to associate with the H3 tail with the same H3K4 methyl preferences as in the domain microarrays (Fig. 2; Additional file 3: Table S2). […] In addition, we confirmed the newly identified interactions observed with the domain microarrays for PHRF1 and TRIM66 (Fig. 2).” for “S2).”
# as §2
# (§3) Supplementary file 13072_2020_328_MOESM3_ESM.xlsx: Additional file 3: Table S2. Histone Peptide Microarray Results. Excel Tab Peptide List is a compiled list of the entire 293 histone peptide library with amino acid sequence ranges. Excel Tab Peptide Array Grid Map is a table representing the pattern in which peptides have been printed for the peptide microarray. Each number corresponds to the peptide number designated in Peptide List. Excel Tab Average Signals is a compiled set of binding data: chromatin reader at 0.5 μM vs. entire 293 peptide library. Data is presented as the average and standard deviation of 4 replicates. The average signals are colored to indicate signal intensity with green being strong and white being weak/low. […] Key: red= stronger relative binding; blue = weaker relative binding. Excel Tab Array info summary is a table summarizing the domains, sequence coverage, array signal range, and noise for each of the GST-tagged readers assayed on the peptide microarrays.
# [3] = test system: BAZ2B; conditions: sheet "Array Heatmap"; GST-tagged BAZ2B; arrays performed twice, total replicate number n = 4
# From the text: as §1, with “S2). […] In general, the 31 PHD fingers were confirmed to associate with the H3 tail with the same H3K4 methyl preferences as in the domain microarrays (Fig. 2; Additional file 3: Table S2). […] In addition, we confirmed the newly identified interactions observed with the domain microarrays for PHRF1 and TRIM66 (Fig. 2).” for “S2).”
# as §2, §3
# [4] = test system: BPTF (PB); conditions: sheet "Array Heatmap"; GST-tagged BPTF (PB); arrays performed twice, total replicate number n = 4
# From the text: as §1, with “S2). […] In general, the 31 PHD fingers were confirmed to associate with the H3 tail with the same H3K4 methyl preferences as in the domain microarrays (Fig. 2; Additional file 3: Table S2). […] In addition, we confirmed the newly identified interactions observed with the domain microarrays for PHRF1 and TRIM66 (Fig. 2).” for “S2).”
# as §2, §3
# [5] = test system: CHD4 (PPCC); conditions: sheet "Array Heatmap"; GST-tagged CHD4 (PPCC); arrays performed twice, total replicate number n = 4
# From the text: as §1, with “S2). […] In general, the 31 PHD fingers were confirmed to associate with the H3 tail with the same H3K4 methyl preferences as in the domain microarrays (Fig. 2; Additional file 3: Table S2). […] In addition, we confirmed the newly identified interactions observed with the domain microarrays for PHRF1 and TRIM66 (Fig. 2).” for “S2).”
# as §2, §3
# [6] = test system: CHD5 (PCC); conditions: sheet "Array Heatmap"; GST-tagged CHD5 (PCC); arrays performed twice, total replicate number n = 4
# From the text: as §1, with “S2). […] In general, the 31 PHD fingers were confirmed to associate with the H3 tail with the same H3K4 methyl preferences as in the domain microarrays (Fig. 2; Additional file 3: Table S2). […] In addition, we confirmed the newly identified interactions observed with the domain microarrays for PHRF1 and TRIM66 (Fig. 2).” for “S2).”
# as §2, §3
# [7] = test system: CHD5 (PPCC); conditions: sheet "Array Heatmap"; GST-tagged CHD5 (PPCC); arrays performed twice, total replicate number n = 4
# From the text: as §1, with “S2). […] In general, the 31 PHD fingers were confirmed to associate with the H3 tail with the same H3K4 methyl preferences as in the domain microarrays (Fig. 2; Additional file 3: Table S2). […] In addition, we confirmed the newly identified interactions observed with the domain microarrays for PHRF1 and TRIM66 (Fig. 2).” for “S2).”
# as §2, §3
# [8] = test system: DIDO1; conditions: sheet "Array Heatmap"; GST-tagged DIDO1; arrays performed twice, total replicate number n = 4
# From the text: as §1, with “S2). […] In general, the 31 PHD fingers were confirmed to associate with the H3 tail with the same H3K4 methyl preferences as in the domain microarrays (Fig. 2; Additional file 3: Table S2). […] In addition, we confirmed the newly identified interactions observed with the domain microarrays for PHRF1 and TRIM66 (Fig. 2).” for “S2).”
# as §2, §3
# [9] = test system: DPF2 (PPC2W2); conditions: sheet "Array Heatmap"; GST-tagged DPF2 (PPC2W2); arrays performed twice, total replicate number n = 4
# From the text: as §1, with “S2). […] In general, the 31 PHD fingers were confirmed to associate with the H3 tail with the same H3K4 methyl preferences as in the domain microarrays (Fig. 2; Additional file 3: Table S2). […] In addition, we confirmed the newly identified interactions observed with the domain microarrays for PHRF1 and TRIM66 (Fig. 2).” for “S2).”
# as §2, §3
# [10] = test system: ING1; conditions: sheet "Array Heatmap"; GST-tagged ING1; arrays performed twice, total replicate number n = 4
# From the text: as §1, with “S2). […] In general, the 31 PHD fingers were confirmed to associate with the H3 tail with the same H3K4 methyl preferences as in the domain microarrays (Fig. 2; Additional file 3: Table S2). […] In addition, we confirmed the newly identified interactions observed with the domain microarrays for PHRF1 and TRIM66 (Fig. 2).” for “S2).”
# as §2, §3
# [11] = test system: ING2; conditions: sheet "Array Heatmap"; GST-tagged ING2; arrays performed twice, total replicate number n = 4
# From the text: as §1, with “S2). […] In general, the 31 PHD fingers were confirmed to associate with the H3 tail with the same H3K4 methyl preferences as in the domain microarrays (Fig. 2; Additional file 3: Table S2). […] In addition, we confirmed the newly identified interactions observed with the domain microarrays for PHRF1 and TRIM66 (Fig. 2).” for “S2).”
# as §2, §3
# [12] = test system: ING3; conditions: sheet "Array Heatmap"; GST-tagged ING3; arrays performed twice, total replicate number n = 4
# From the text: as §1, with “S2). […] In general, the 31 PHD fingers were confirmed to associate with the H3 tail with the same H3K4 methyl preferences as in the domain microarrays (Fig. 2; Additional file 3: Table S2). […] In addition, we confirmed the newly identified interactions observed with the domain microarrays for PHRF1 and TRIM66 (Fig. 2).” for “S2).”
# as §2, §3
# [13] = test system: ING5; conditions: sheet "Array Heatmap"; GST-tagged ING5; arrays performed twice, total replicate number n = 4
# From the text: as §1, with “S2). […] In general, the 31 PHD fingers were confirmed to associate with the H3 tail with the same H3K4 methyl preferences as in the domain microarrays (Fig. 2; Additional file 3: Table S2). […] In addition, we confirmed the newly identified interactions observed with the domain microarrays for PHRF1 and TRIM66 (Fig. 2).” for “S2).”
# as §2, §3
# [14] = test system: KDM4C (TTP); conditions: sheet "Array Heatmap"; GST-tagged KDM4C (TTP); arrays performed twice, total replicate number n = 4
# From the text: as §1, with “S2). […] In general, the 31 PHD fingers were confirmed to associate with the H3 tail with the same H3K4 methyl preferences as in the domain microarrays (Fig. 2; Additional file 3: Table S2). […] In addition, we confirmed the newly identified interactions observed with the domain microarrays for PHRF1 and TRIM66 (Fig. 2).” for “S2).”
# as §2, §3
# [15] = test system: KDM5A (1); conditions: sheet "Array Heatmap"; GST-tagged KDM5A (1); arrays performed twice, total replicate number n = 4
# From the text: as §1, with “S2). […] In general, the 31 PHD fingers were confirmed to associate with the H3 tail with the same H3K4 methyl preferences as in the domain microarrays (Fig. 2; Additional file 3: Table S2). […] In addition, we confirmed the newly identified interactions observed with the domain microarrays for PHRF1 and TRIM66 (Fig. 2).” for “S2).”
# as §2, §3
substance,measurement,setting,value
H3K9me2 (1-15): H3 1-15,"Array Heatmap signal, KDM5B (1)",[1],0.6602
same,"Array Heatmap signal, AIRE (PP)",[2],0.4373
same,"Array Heatmap signal, BAZ2B",[3],0.4489
same,"Array Heatmap signal, BPTF (PB)",[4],0.344
same,"Array Heatmap signal, CHD4 (PPCC)",[5],0.5681
same,"Array Heatmap signal, CHD5 (PCC)",[6],0.8159
same,"Array Heatmap signal, CHD5 (PPCC)",[7],0.5349
same,"Array Heatmap signal, DIDO1",[8],0.631
same,"Array Heatmap signal, DPF2 (PPC2W2)",[9],0.6348
same,"Array Heatmap signal, ING1",[10],0.508
same,"Array Heatmap signal, ING2",[11],0.5906
same,"Array Heatmap signal, ING3",[12],0.474
same,"Array Heatmap signal, ING5",[13],0.3284
same,"Array Heatmap signal, KDM4C (TTP)",[14],0.4574
same,"Array Heatmap signal, KDM5A (1)",[15],0.4531
